Test results from article PMC3166236 (Journal of medicinal chemistry, 2011).
pIC50: −log10 of the molar value.

What was measured:
[1] = Enzymatic stability in rat intestinal homogenate pH 6.5 at 37 °C; settings: Sprague-Dawley, pH 6.5, Half-lives, rat intestinal homogenate pH 6.5, 37 °C
in vitro = settings: human

COC(=O)[C@H](Cc1ccc(OP2(=O)CO[C@@H](Cn3ccc(N)nc3=O)CO2)cc1)NC(=O)[C@@H](N)C(C)C (mixture of isomers) [Compound 12, Methyl (L)-valyl-O-[(5S)-5-[(4-amino-2-oxopyrimidin-1(2H)-yl)methyl]-2-oxido-1,4,2-dioxaphosphinan-2-yl]-(L)-tyrosinate]
half-life at 0.5 mg/ml ([1]; t1/2 Intestinal Homogenate pH 6.5, Rp isomer): < 30 min | half-life at 0.5 mg/ml ([1]; t1/2 Intestinal Homogenate pH 6.5, Sp isomer): < 30 min | pIC50 (in vitro): < 4.00
